In US20140004176A1, “DELIVERY OF TREATMENTS TRANSDERMALLY FOR FUNGAL INFECTIONS AND OTHER INDICATIONS” (Strategic Science & Techologies, priority 2010, published 2014):

Conditions: pH 7

water solubility: water soluble
Structure (SMILES): CC(C)Cc1ccc(C(C)C(=O)[O-])cc1.[Na+] (stereo not shown) [Ibuprofen sodium salt]
